Like-named read-outs stand apart in the source and are kept apart here.
Target: cloned human dopamine D3 receptors (Homo sapiens, UniProt P35462)
Test: [N-Methyl-3H]Spiroperidol binding to cloned human dopamine D3 receptors
Excerpt: [N-Methyl-^3H]Spiroperidol Binding to Cloned Human Dopamine D3 Receptors
This assay measures the in vitro activity of compounds on cloned human dopamine (D3) receptors and predicts the direct dopamine-blocking properties of putative neuropsychiatric agents at human dopamine D3 receptors.
The D3 gene was isolated from a human striatal cDNA library (Stratagene). The gene was sequenced and sub-cloned into the expression vector RC/RSV (Invitrogen). CHO (Chinese Hamster Ovary) cells were stably transfected with 10 μg of the D3/RSV plasmid using the DOTAP method from Boehringer Mannheim and 72 clones that were G418 resistant were isolated. Using mRNA and binding displacement data a single high expressing clone was identified. This clone was then grown in large batches for the purpose of developing a 96 well format assay.
• 1. One plate (10 cm) with approximately 2-3 million D3 cells per plate is incubated with 1 ml of Trypsin-EDTA at room temperature for ˜2 min or until cells have lifted off plates. […]
A 200 μl sample membrane homogenate is added to 200 μl of 1% SDS, vortexed and allowed to stand for 5 min. Aliquots (25, 50 and 100 μl) of this mixture are assayed in duplicate following the standard Bio-Rad DC protein assay protocol (kit catalog number 500-0112) and using reagent S. Absorbance readings are made at 750 nm (note: the most accurate protein OD readings are between 0.1-0.5 units). […]

Chains of the proteins cited; added tags and fusions are not shown.
UniProt P35462, whole entry: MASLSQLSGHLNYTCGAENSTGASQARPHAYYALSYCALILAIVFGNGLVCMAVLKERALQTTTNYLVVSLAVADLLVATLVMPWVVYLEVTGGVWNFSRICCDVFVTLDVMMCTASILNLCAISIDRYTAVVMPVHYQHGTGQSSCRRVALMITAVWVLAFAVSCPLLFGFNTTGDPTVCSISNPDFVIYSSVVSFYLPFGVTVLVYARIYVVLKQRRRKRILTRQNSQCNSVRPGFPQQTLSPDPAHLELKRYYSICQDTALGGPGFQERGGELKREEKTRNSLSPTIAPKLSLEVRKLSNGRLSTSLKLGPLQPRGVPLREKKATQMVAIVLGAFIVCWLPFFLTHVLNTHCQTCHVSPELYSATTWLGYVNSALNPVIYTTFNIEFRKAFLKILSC

| SMILES | Ki (read-out: D3 Ki) | Ki (read-out: d3Ki) |
| --- | --- | --- |
| O=C(NCCCc1cc[nH]c1)[C@@H]1C[C@H]1CN1CCN(c2nn(Cc3ccccc3)c3ccsc23)CC1 | 0.0049 µM | – |
| O=C(NC12CC3CC(CC(C3)C1)C2)[C@@H]1C[C@H]1CN1CCN(c2csc3cc(C(F)(F)F)ccc23)CC1 [826888] | – | 0.0372 µM |
